Earlier results on 1 molecule are cited in paper PMC9469100, “Turning Nonselective Inhibitors of Type I Protein Arginine Methyltransferases into Potent and Selective Inhibitors of Protein Arginine Methyltransferase 4 through a Deconstruction–Reconstruction and Fragment-Growing Approach” (Journal of Medicinal Chemistry, 2022).

In this data set the test system is lysine methyltransferase SET7/9. The following applies: cited from earlier work.

Turning to `O=C(Nc1ccc2cc(C(=O)O)cc(O)c2c1)Nc1ccc2cc(C(=O)O)cc(O)c2c1` [compound 2], the “activity against the lysine methyltransferase SET7/9” value is “essentially inactive”.
